In one data set the target is IDH2-R140Q (Homo sapiens, UniProt P48735, R140Q). Nature of the data set: Fluorescent determination of IDH2-R140Q cell activity (2-HG in U87MGR140Q cells). Conditions: read-out: IC50 (2-HG inhibition), 72 hours incubation.
The target of another data set is IDH1-R132H (Homo sapiens, UniProt O75874, R132H). Nature of the data set: Fluorescent determination of IDH1-R132H cell activity (2-HG in U87MGR132H cells). It is filed as cell-based. Conditions: 2-HG inhibition in U87MGR132H cells transfected with IDH1-R132H mutant plasmid.
Data set [1] in a line: Metabolic stability test in liver microsomes (mouse). It is filed as in vitro ADME. To be noted: percentage of remaining compound after incubation for 30 minutes vs 0 minute; 1 μM compound; 0.5 mg/mL liver microsomes; 37° C. On the technique in general: Liver microsomes are vesicles of endoplasmic reticulum, rich in cytochrome P450 enzymes.
Data set [2] in a line: Metabolic stability test in liver microsomes (rat). It is filed as in vitro ADME. To be noted: percentage of remaining compound after incubation for 30 minutes vs 0 minute; 1 μM compound; 0.5 mg/mL liver microsomes; 37° C.
Data set [3] in a line: Determination of solubility in sodium phosphate buffers. To be noted: for Solubility pH 2.1: pH 2.1 sodium phosphate buffer; for Solubility pH 7.4: pH 7.4 sodium phosphate buffer.

By UniProt entry, the sequences of proteins in these tests, tags left out. Residues count along the entry.
UniProt P48735, 40-452 R140Q limits assumed: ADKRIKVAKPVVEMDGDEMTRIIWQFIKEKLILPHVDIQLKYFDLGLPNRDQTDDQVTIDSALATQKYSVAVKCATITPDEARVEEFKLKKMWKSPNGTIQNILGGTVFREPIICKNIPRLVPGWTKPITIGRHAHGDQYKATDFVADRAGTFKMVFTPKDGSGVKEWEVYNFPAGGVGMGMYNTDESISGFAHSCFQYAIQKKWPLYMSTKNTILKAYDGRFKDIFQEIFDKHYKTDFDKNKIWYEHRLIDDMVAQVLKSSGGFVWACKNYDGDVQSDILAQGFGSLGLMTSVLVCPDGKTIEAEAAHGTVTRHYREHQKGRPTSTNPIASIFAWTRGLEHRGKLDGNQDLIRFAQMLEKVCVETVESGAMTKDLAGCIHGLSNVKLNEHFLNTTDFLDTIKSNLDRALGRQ
UniProt O75874, whole entry R132H: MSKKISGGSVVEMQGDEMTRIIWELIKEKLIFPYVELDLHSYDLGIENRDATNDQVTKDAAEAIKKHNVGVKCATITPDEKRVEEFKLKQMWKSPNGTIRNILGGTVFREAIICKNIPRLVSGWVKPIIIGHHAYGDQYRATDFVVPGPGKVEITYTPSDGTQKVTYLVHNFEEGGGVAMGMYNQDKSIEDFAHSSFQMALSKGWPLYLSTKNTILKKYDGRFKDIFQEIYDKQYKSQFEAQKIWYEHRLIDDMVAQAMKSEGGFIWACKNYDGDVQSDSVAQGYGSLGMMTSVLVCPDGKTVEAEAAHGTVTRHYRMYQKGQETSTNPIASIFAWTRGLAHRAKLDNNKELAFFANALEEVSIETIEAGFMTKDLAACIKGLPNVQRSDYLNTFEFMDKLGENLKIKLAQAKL

Some results are limits rather than exact numbers.

As usually defined, the IC50 is the concentration at which inhibition is half-maximal. Turning to `C[C@H](Nc1nc(NC2CC(F)(F)C2)nc(C2=C(F)C(O)C(F)(F)CC2)n1)C(F)(F)F` (mixture of isomers) [Compound 239], the 50% inhibitory concentration (IC50) on IDH2-R140Q was found to be 25 nM; against IDH1-R132H, 262 nM. The “Mouse liver microsome stability” value in data set [1] amounted to 90.9%. Moreover, the “Rat liver microsome stability” value in data set [2] stood at 100.0%.
In the case of `CC(C)Nc1nc(N[C@H](C)C(F)(F)F)nc(C2=C(F)C(O)CCC2)n1` (single isomer, unassigned) [101], the values for the 50% inhibitory concentration (IC50) at IDH2-R140Q and at IDH1-R132H were 80 nM and 1140 nM, respectively. Further, the “Mouse liver microsome stability” value in data set [1] came to 84.6%. For the same compound, the “Rat liver microsome stability” value in data set [2] was 88.0%.
In the case of `C[C@@H](Nc1nc(N[C@H](C)C(F)(F)F)nc(C2=C(F)C(O)CCC2)n1)C(F)(F)F` (single isomer, unassigned) [102], the results for the 50% inhibitory concentration (IC50) at IDH2-R140Q and against IDH1-R132H were 51 nM and 232 nM, respectively. For the same compound, the “Mouse liver microsome stability” value in data set [1] is reported as 86.2%. The “Rat liver microsome stability” value in data set [2] was found to be 92.7%. The “Solubility pH 2.1” value in data set [3] stood at 0.729 mg/mL. In addition, the “Solubility pH 7.4” value in data set [3] was less than 0.005 mg/mL.
In the case of `C[C@@H](Nc1nc(N[C@H](C)C(F)(F)F)nc(C2=C(F)C(O)CCC2)n1)C(F)(F)F` (single isomer, unassigned) [103], the figures for the IC50 on IDH2-R140Q and on IDH1-R132H were 1000 nM and 2500 nM, respectively. Moreover, the “Mouse liver microsome stability” value in data set [1] is listed as 78.5%. In addition, the “Rat liver microsome stability” value in data set [2] is recorded as 89.7%.
As for `OC1CCCC(c2nc(NC3CC(F)(F)C3)nc(NC3CC(F)(F)C3)n2)=C1F` (single isomer, unassigned) [105], the values for the concentration for half-maximal inhibition (IC50) on IDH2-R140Q and on IDH1-R132H were 40 nM and 351 nM, respectively. For the same compound, in data set [1], the “Mouse liver microsome stability” value came out at 67.3%. The “Rat liver microsome stability” value in data set [2] turned out to be 84.0%.
On to `[2H]C1(O)CCCC(c2nc(NC3CC(F)(F)C3)nc(NC3CC(F)(F)C3)n2)=C1F` (single isomer, unassigned) [109], for which the results for the half-inhibitory concentration (IC50) at IDH2-R140Q and at IDH1-R132H were 57 nM and 279 nM, respectively. Besides, the “Mouse liver microsome stability” value in data set [1] is reported as 58.8%. Further, in data set [2], the “Rat liver microsome stability” value is on record as 85.4%.
On to `CC(C)Nc1nc(N[C@H](C)C(F)(F)F)nc(C2=CC(O)CCC2)n1` (single isomer, unassigned) [147], for which the “Mouse liver microsome stability” value in data set [1] amounted to 48.1%. In addition, the “Rat liver microsome stability” value in data set [2] is given as 65.0%.
With `C[C@@H](Nc1nc(N[C@H](C)C(F)(F)F)nc(C2=CC(O)CCC2)n1)C(F)(F)F` (single isomer, unassigned) [149], the results for the concentration for half-maximal inhibition (IC50) at IDH2-R140Q and against IDH1-R132H were 177 nM and 693 nM, respectively. For the same compound, in data set [1], the “Mouse liver microsome stability” value is listed as 59.7%. Further, in data set [2], the “Rat liver microsome stability” value is 66.8%.
Turning to `OC1C(F)=C(c2nc(NC3CC(F)(F)C3)nc(NC3CC(F)(F)C3)n2)CCC1(F)F` (single isomer, unassigned) [236], the half-inhibitory concentration (IC50) at IDH2-R140Q was determined as 45 nM; on IDH1-R132H, 252 nM. The “Mouse liver microsome stability” value in data set [1] is reported as 83.9%. Besides, the “Rat liver microsome stability” value in data set [2] is on record as 91.3%.
For `[2H]C1(O)C(F)=C(c2nc(N[C@H](C)C(F)(F)F)nc(N[C@H](C)C(F)(F)F)n2)CCC1(F)F` (single isomer, unassigned) [249], on IDH2-R140Q, the IC50 was found to be 72 nM. Besides, at IDH1-R132H, the concentration for half-maximal inhibition (IC50) came to 134 nM. Moreover, in data set [1], the “Mouse liver microsome stability” value is listed as 100.0%. The “Rat liver microsome stability” value in data set [2] is 98.0%. In data set [3], the “Solubility pH 2.1” value was 0.036 mg/mL and the “Solubility pH 7.4” value was found to be 0.011 mg/mL.
On to `C[C@@H](Nc1nc(N[C@H](C)C(F)(F)F)nc(C2=CC(O)C(F)(F)CC2)n1)C(F)(F)F` (single isomer, unassigned) [291], for which the IC50 turned out to be 201 nM on IDH2-R140Q and 179 nM on IDH1-R132H. In addition, the “Mouse liver microsome stability” value in data set [1] was found to be 98.9%. For the same compound, the “Rat liver microsome stability” value in data set [2] was 100.0%.

The values are drawn from patent US12234211B2, “Cycloolefin substituted heteroaromatic compounds and their use” (HUTCHISON MEDIPHARMA LIMITED, priority 2017, dated 2025).
